Experimental data taken from patent publication US20250195530A1, “POLQ INHIBITORS” (ASTRAZENECA AB, priority 2022, published 2025).

By UniProt entry, the sequences of proteins in these tests, tags left out. Residues count along the entry.
UniProt O75417, 1780-2590: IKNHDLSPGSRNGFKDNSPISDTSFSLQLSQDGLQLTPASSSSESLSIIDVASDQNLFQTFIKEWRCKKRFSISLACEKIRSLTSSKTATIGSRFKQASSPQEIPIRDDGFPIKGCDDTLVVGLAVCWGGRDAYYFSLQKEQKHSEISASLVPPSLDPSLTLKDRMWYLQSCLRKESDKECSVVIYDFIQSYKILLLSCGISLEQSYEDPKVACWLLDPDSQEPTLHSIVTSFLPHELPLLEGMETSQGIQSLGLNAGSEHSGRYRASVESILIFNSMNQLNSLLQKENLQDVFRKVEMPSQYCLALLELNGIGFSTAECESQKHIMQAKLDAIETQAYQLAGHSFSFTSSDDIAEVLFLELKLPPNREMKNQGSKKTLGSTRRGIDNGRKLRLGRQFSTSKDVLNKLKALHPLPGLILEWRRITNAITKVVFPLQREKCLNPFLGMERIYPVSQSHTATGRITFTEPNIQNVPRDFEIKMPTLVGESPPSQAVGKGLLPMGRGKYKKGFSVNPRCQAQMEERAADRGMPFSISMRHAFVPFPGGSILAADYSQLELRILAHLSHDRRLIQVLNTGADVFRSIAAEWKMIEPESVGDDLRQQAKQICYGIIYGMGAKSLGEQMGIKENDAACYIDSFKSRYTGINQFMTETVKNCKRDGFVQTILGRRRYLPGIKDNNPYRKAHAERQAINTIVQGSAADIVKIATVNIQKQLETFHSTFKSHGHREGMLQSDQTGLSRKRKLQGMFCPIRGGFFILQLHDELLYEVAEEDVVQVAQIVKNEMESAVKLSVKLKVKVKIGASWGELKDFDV

Biological target: isolated polymerase domain (I1780-V2590) of DNA polymerase theta (Polθ) (Homo sapiens (Human), UniProt O75417)
Test: biochemical

Row | SMILES | IC50 [nM]
1 | CNC(=O)COc1ccc(Cl)c(-c2nc3c(OC4(C)CC4)ncnc3n2Cc2cc(C)ccn2)c1 [Example T122, 2-(4-chloro-3-(6-(1-methylcyclopropoxy)-9-((4-methylpyridin-2-yl)methyl)-9H-purin-8-yl)phenoxy)-N-methylacetamide] | 158
2 | C[C@H](CCOc1ccc(-c2nc3c(OC4(C)CC4)ncnc3n2Cc2cc(Cl)ccc2F)c(Cl)c1)C(=O)O [Example U10, (R)-4-(3-chloro-4-(9-(5-chloro-2-fluorobenzyl)-6-(1-methylcyclopropoxy)-9H-purin-8-yl)phenoxy)-2-methylbutanoic acid] | 3.98
3 | C[C@H](CCOc1cccc(-c2nc3c(OC4(C)CC4)ncnc3n2Cc2cccc(Cl)c2)c1Cl)C(=O)O [Example T297, (R)-4-(2-chloro-3-(9-(3-chlorobenzyl)-6-(1-methylcyclopropoxy)-9H-purin-8-yl)phenoxy)-2-methylbutanoic acid] | 6.31
4 | Cc1ccnc(Cn2c(-c3ccc(N4CC(C(N)=O)C4)cc3Cl)nc3c(OC4(C)CC4)ncnc32)c1 [Example T204, 1-(3-chloro-4-(6-(1-methylcyclopropoxy)-9-((4-methylpyridin-2-yl)methyl)-9H-purin-8-yl)phenyl)azetidine-3-carboxamide] | 7.94
5 | CC(CCOc1ccc(-c2nc3c(OC4(C)CC4)ncnc3n2Cc2cc(F)cc(Cl)c2)c(Cl)c1)C(=O)O (single isomer, unassigned) [Example T273, 4-(3-chloro-4-(9-(3-chloro-5-fluorobenzyl)-6-(1-methylcyclopropoxy)-9H-purin-8-yl)phenoxy)-2-methylbutanoic acid] | 3.16
6 | Cc1ccnc(Cn2c(-c3cccc(OCCCN4CC(O)C4)c3Cl)nc3c(OC4(C)CC4)ncnc32)c1 [Example T514, 1-(3-(2-chloro-3-(6-(1-methylcyclopropoxy)-9-((4-methylpyridin-2-yl)methyl)-9H-purin-8-yl)phenoxy)propyl)azetidin-3-ol] | 7.94
7 | COc1ccc(Cn2c(-c3ccc(OCCN4CCNCC4)cc3Cl)nc3c(OC4(C)CC4)ncnc32)nc1 [Example T532, 8-(2-chloro-4-(2-(piperazin-1-yl)ethoxy)phenyl)-9-((5-methoxypyridin-2-yl)methyl)-6-(1-methylcyclopropoxy)-9H-purine] | 39.8
8 | CC(CCOc1ccc(-c2nc3c(OC4(C)CC4)ncnc3n2Cc2cccc(Cl)c2F)c(Cl)c1)C(=O)O (racemic) [Example T267, 4-(3-chloro-4-(9-(3-chloro-2-fluorobenzyl)-6-(1-methylcyclopropoxy)-9H-purin-8-yl)phenoxy)-2-methylbutanoic acid] | 6.31
9 | Cc1ccnc(Cn2c(-c3ccc(CCO)cc3Cl)nc3c(OC4(C)CC4)ncnc32)c1 [Example T65, 2-(3-chloro-4-(6-(1-methylcyclopropoxy)-9-((4-methylpyridin-2-yl)methyl)-9H-purin-8-yl)phenyl)ethan-1-ol] | 7.94
10 | Cc1ccnc(Cn2c(-c3ccc(OCCS(C)(=O)=O)cc3Cl)nc3c(OC4(C)CC4)ncnc32)c1 [Example T129, 8-(2-chloro-4-(2-(methylsulfonyl)ethoxy)phenyl)-6-(1-methylcyclopropoxy)-9-((4-methylpyridin-2-yl)methyl)-9H-purine] | 6.31
11 | C#CCNC(=O)COc1ccc(-c2nc3c(OC4(C)CC4)ncnc3n2Cc2cc(C)ccn2)c(Cl)c1 [Example T266, 2-(3-chloro-4-(6-(1-methylcyclopropoxy)-9-((4-methylpyridin-2-yl)methyl)-9H-purin-8-yl)phenoxy)-N-(prop-2-yn-1-yl)acetamide] | 6.31
12 | Cc1ccnc(Cn2c(-c3ccc(C4CCC(=O)N4)cc3Cl)nc3c(OC4(C)CC4)ncnc32)c1 (single isomer, unassigned) [Example T173, 5-(3-chloro-4-(6-(1-methylcyclopropoxy)-9-((4-methylpyridin-2-yl)methyl)-9H-purin-8-yl)phenyl)pyrrolidin-2-one] | 15.8
13 | CC(C)(COc1ccc(-c2nc3c(OC4(C)CC4)ncnc3n2Cc2cccc(Cl)c2)c(Cl)c1)CC(=O)O [Example T436, 4-(3-chloro-4-(9-(3-chlorobenzyl)-6-(1-methylcyclopropoxy)-9H-purin-8-yl)phenoxy)-3,3-dimethylbutanoic acid] | 7.94
14 | CC1(Oc2ncnc3c2nc(-c2cccc(/C=C/C(=O)O)c2Cl)n3Cc2cccc(Cl)c2)CC1 [Example T80, (E)-3-(2-chloro-3-(9-(3-chlorobenzyl)-6-(1-methylcyclopropoxy)-9H-purin-8-yl)phenyl)acrylic acid] | 7.94
15 | CNC(=O)CCc1ccc(-c2nc3c(OC4(C)CC4)ncnc3n2Cc2cc(C)ccn2)c(Cl)c1 [Example T214, 3-(3-chloro-4-(6-(1-methylcyclopropoxy)-9-((4-methylpyridin-2-yl)methyl)-9H-purin-8-yl)phenyl)-N-methylpropanamide] | 6.31

Other lines, results leading:

Row | IC50 [nM] | SMILES
16 | 79.4 | Cc1ccnc(Cn2c(-c3ccc(C(=O)N4CCOCC4)cc3Cl)nc3c(OC4(C)CC4)ncnc32)c1 [Example T315, (3-chloro-4-(6-(1-methylcyclopropoxy)-9-((4-methylpyridin-2-yl)methyl)-9H-purin-8-yl)phenyl)(morpholino)methanone]
17 | 2.51 | COc1ccc(F)cc1Cn1c(-c2ccc(OCC[C@H](C)C(=O)O)cc2Cl)nc2c(OC3(C)CC3)ncnc21 [Example U68, (S)-4-(3-chloro-4-(9-(5-fluoro-2-methoxybenzyl)-6-(1-methylcyclopropoxy)-9H-purin-8-yl)phenoxy)-2-methylbutanoic acid]
18 | 7.94 | CNC(=O)Cc1ccc(-c2nc3c(OC4(C)CC4)ncnc3n2Cc2cc(C)ccn2)c(Cl)c1 [Example T113, 2-(3-chloro-4-(6-(1-methylcyclopropoxy)-9-((4-methylpyridin-2-yl)methyl)-9H-purin-8-yl)phenyl)-N-methylacetamide]
19 | 15.8 | Cc1ccnc(Cn2c(-c3ccc(CC(=O)N4CCNC(=O)C4)cc3Cl)nc3c(OC4(C)CC4)ncnc32)c1 [Example T431, 4-(2-(3-chloro-4-(6-(1-methylcyclopropoxy)-9-((4-methylpyridin-2-yl)methyl)-9H-purin-8-yl)phenyl)acetyl)piperazin-2-one]
20 | 3.16 | Cc1ccnc(Cn2c(-c3ccc(O[C@H]4CNC(=O)C4)cc3Cl)nc3c(OC4(C)CC4)ncnc32)c1 [Example T183, (R)-4-(3-chloro-4-(6-(1-methylcyclopropoxy)-9-((4-methylpyridin-2-yl)methyl)-9H-purin-8-yl)phenoxy)pyrrolidin-2-one]
21 | 10 | Cc1ccnc(Cn2c(-c3ccc(OCC(=O)N4CC[C@@H](CO)C4)cc3Cl)nc3c(OC4(C)CC4)ncnc32)c1 [Example T578, (R)-2-(3-chloro-4-(6-(1-methylcyclopropoxy)-9-((4-methylpyridin-2-yl)methyl)-9H-purin-8-yl)phenoxy)-1-(3-(hydroxymethyl)pyrrolidin-1-yl)ethan-1-one]
22 | 7.94 | Cc1ccnc(Cn2c(-c3ccc(CC(=O)N(C)CCO)cc3Cl)nc3c(OC4(C)CC4)ncnc32)c1 [Example T369, 2-(3-chloro-4-(6-(1-methylcyclopropoxy)-9-((4-methylpyridin-2-yl)methyl)-9H-purin-8-yl)phenyl)-N-(2-hydroxyethyl)-N-methylacetamide]
23 | 1580 | CC1(Oc2ncnc3c2nc(-c2ccc(CC(N)=O)cc2Cl)n3CCc2cccc(Br)n2)CC1 [Example T46, 2-(4-(9-(2-(6-bromopyridin-2-yl)ethyl)-6-(1-methylcyclopropoxy)-9H-purin-8-yl)-3-chlorophenyl)acetamide]
24 | 10 | Cc1ccnc(Cn2c(-c3ccc(OCC(=O)N4CCOCC4)cc3Cl)nc3c(OC4(C)CC4)ncnc32)c1 [Example T475, 2-(3-chloro-4-(6-(1-methylcyclopropoxy)-9-((4-methylpyridin-2-yl)methyl)-9H-purin-8-yl)phenoxy)-1-morpholinoethan-1-one]
25 | 1260 | Cc1cccnc1CCn1c(-c2ccc(CC(N)=O)cc2Cl)nc2c(OC3(C)CC3)ncnc21 [Example T117, 2-(3-chloro-4-(6-(1-methylcyclopropoxy)-9-(2-(3-methylpyridin-2-yl)ethyl)-9H-purin-8-yl)phenyl)acetamide]
26 | 5.01 | Cc1cnc(Cn2c(-c3ccc(OCCN4CCNC[C@@H]4C)cc3Cl)nc3c(OC4(C)CC4)ncnc32)s1 [Example T393, (S)-2-((8-(2-chloro-4-(2-(2-methylpiperazin-1-yl)ethoxy)phenyl)-6-(1-methylcyclopropoxy)-9H-purin-9-yl)methyl)-5-methylthiazole]
27 | 7.94 | CO[C@H]1CCN(C(=O)COc2ccc(-c3nc4c(OC5(C)CC5)ncnc4n3Cc3cc(C)ccn3)c(Cl)c2)C1 [Example T577, (S)-2-(3-chloro-4-(6-(1-methylcyclopropoxy)-9-((4-methylpyridin-2-yl)methyl)-9H-purin-8-yl)phenoxy)-1-(3-methoxypyrrolidin-1-yl)ethan-1-one]
28 | 5.01 | CC1(Oc2ncnc3c2nc(-c2ccc(OCCN4CC(O)C4)cc2Cl)n3Cc2cc(C(F)F)ccn2)CC1 [Example T307, 1-(2-(3-chloro-4-(9-((4-(difluoromethyl)pyridin-2-yl)methyl)-6-(1-methylcyclopropoxy)-9H-purin-8-yl)phenoxy)ethyl)azetidin-3-ol]
29 | 6.31 | CC1(Oc2ncnc3c2nc(-c2ccc(OCC[C@@](C)(O)C(=O)O)cc2Cl)n3Cc2cccc(Cl)c2)CC1 [Example T301, (R)-4-(3-chloro-4-(9-(3-chlorobenzyl)-6-(1-methylcyclopropoxy)-9H-purin-8-yl)phenoxy)-2-hydroxy-2-methylbutanoic acid]
30 | 3.98 | CC(c1cc(Cl)ccn1)n1c(-c2ccc(OCCN3CCNCC3)cc2Cl)nc2c(OC3(C)CC3)ncnc21 (single isomer, unassigned; isomer 2) [Example S5, 8-(2-chloro-4-(2-(piperazin-1-yl)ethoxy)phenyl)-9-(1-(4-chloropyridin-2-yl)ethyl)-6-(1-methylcyclopropoxy)-9H-purine (Isomer 2)]
31 | 10 | COC1(COc2ccc(-c3nc4c(OC5(C)CC5)ncnc4n3Cc3cc(C)ccn3)c(Cl)c2)COC1 [Example T333, 8-(2-chloro-4-((3-methoxyoxetan-3-yl)methoxy)phenyl)-6-(1-methylcyclopropoxy)-9-((4-methylpyridin-2-yl)methyl)-9H-purine]
